The values that follow come from US20070092527A1, “Proton-sensing g-protein coupled receptors and dna sequences thereof” (NOVARTIS AG, priority 2003, published 2007).

For this assay, the system named is primary human osteoblast precursors isolated from trabecular bone. Nature of the assay: IP formation in primary human osteoblast precursors. Particulars: primary cells; mean+/-sem, N=3.

Each structure is given as a SMILES string.

Consider `[H+]` [protons], for which the “Half-maximal activation of IP formation” value was 7.41+/−0.02 pH.
